Most compounds without a hit are left out; they make up all but 1.8% or so of the library.
UUG fidelity: alters start codon recognition fidelity in yeast | S. cerevisiae UUG-firefly luciferase reporter, luminescence/redox ratio | activity score, % at 18.7 µM | 350,000 compounds, 0.13% hits | AID 602363;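 active = replicate mean at a twofold rise or more, about +100% in these data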;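 note: firefly luciferase made from a UUG start codon reports start codon fidelity; reporter light over untreated wells divided by growth signal over untreated wells; some hits fall short of that in this replicate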
SIRT5 inh: SIRT5 desuccinylase inhibitors, primary screen, biochemical, fluorescence imaging, single point, set 5 | NAD-dependent protein deacylase sirtuin-5, mitochondrial (Homo sapiens), Q9NXA8 | Purified SirT5, succinyl-peptide AMC, trypsin-coupled fluorescence | inhibition, % at 15 µM | hit rate 1.1% among 330,000 | AID 652115, 2013; in the data active = inhibition above about 15%; inconclusive = no clear call, values can overlap the other calls
RAD54 inh: inhibitors of human RAD54 branch migration, primary screen, biochemical, fluorescence, single point; RAD54 Holliday junction branch migration, FAM/BHQ fluorescence; inhibition, % at 10.4 µM; hit rate 0.14% among 360,000;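 active = mean normalized replicate activity at least 40 and at least half of replicates scoring 40 or more; inconclusive = only one of the two criteria met; inactive = mean below 40 and under half of replicates reaching 40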;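 also: 0% = median of neutral control wells and 100% = median of positive control wells; inhibitors cause a drop in the FAM fluorescence signal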
RAD52 anneal inh: RAD52 DNA annealing inhibitors, primary screen, biochemical, FRET, single point, set 2 | DNA repair protein RAD52 homolog (Homo sapiens), P43351 | recombinant RAD52 DNA annealing, FRET fluorescence | inhibition, % at 18.7 µM | hit rate 0.46% among 360,000;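 active = every replicate showing at least 50% inhibition; inconclusive = mean inhibition at least 50% but not in every replicate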
E-sel inducer: E-selectin induction in HUVECs, primary screen, imaging, HUVEC, immunofluorescence imaging, single point | hit rate 0.37% among 260,000 | normalized: neutral wells 0, TNF-alpha wells 100 | activation, % at 7.58 µM | P16581;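 active = mean E-selectin-positive cell signal at least 10% of the positive control, reached in at least 60% of replicates, without over 20% cell loss; inconclusive = no rule given, readout overlaps actives, possibly toxicity-flagged; inactive = the rest, including those meeting only one limit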
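Read-out: % PE-positive cells | Test system: HUVEC | Doses: One compound dose added by pin transfer | Buffer or medium: EGM-2 over gelatin coat | Signal: Immunofluorescence imaging | Benchmarks: TNF-alpha, DMSO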
AF4-AF9 inh: inhibitors of AF4 peptide binding to AF9, primary screen, biochemical, AlphaScreen, biotin-AF4 peptide, FLAG-AF9, single point | inhibition, % at 10 µM | hit rate 0.47% among 350,000;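 active = every replicate reaching a set inhibition limit, whatever the replicate mean, cut at about 25% in these data; inconclusive = mean inhibition reaches that limit but some replicates miss it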;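 also: 0% = plate neutral control median and 100% = total signal loss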
RAD52 DNA ctr: DNA-binding compounds via dye displacement, dose response, artefact control for RAD52 inhibitor project, biochemical, fluorescence polarization, cherry-pick | shares compounds with RAD52 anneal inh | Salmon sperm DNA/acridine orange FP displacement | AC50, µM | hit rate 8% among 1,000 | AID 652128, 2013;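 active = fitted half-maximal concentration for signal loss at or below twice the highest dose tested, in every separate run, actives reach about 64 µM in these data; inconclusive = runs disagree, or flat partial signal loss, or poor fit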
* = called active by the depositor; i = inactive; ? = inconclusive; . = not tested or not shown.

The chains behind the UniProt entries cited, without tags or fusion partners.
DNA repair protein RAD52 homolog (Homo sapiens), P43351, UniProt P43351, whole entry, looked up: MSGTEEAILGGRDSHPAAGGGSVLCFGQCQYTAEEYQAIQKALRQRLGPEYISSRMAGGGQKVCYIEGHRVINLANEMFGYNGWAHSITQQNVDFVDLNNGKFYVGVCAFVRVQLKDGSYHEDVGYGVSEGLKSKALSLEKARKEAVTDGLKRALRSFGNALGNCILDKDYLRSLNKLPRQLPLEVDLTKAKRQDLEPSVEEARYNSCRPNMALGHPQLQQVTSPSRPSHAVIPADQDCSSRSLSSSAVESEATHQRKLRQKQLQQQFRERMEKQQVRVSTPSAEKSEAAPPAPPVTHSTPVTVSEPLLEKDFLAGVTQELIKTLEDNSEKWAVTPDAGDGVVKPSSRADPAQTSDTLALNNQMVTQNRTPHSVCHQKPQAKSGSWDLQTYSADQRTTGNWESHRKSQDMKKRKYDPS

SMILES	UUG fidelity	SIRT5 inh	RAD54 inh	RAD52 anneal inh	E-sel inducer	AF4-AF9 inh	RAD52 DNA ctr
CCOc1ccc(CCN2C(=S)N([C@@H](CC(C)C)CN3CCCC3CN3C(=S)NC[C@@H]3Cc3ccc(O)cc3)C[C@@H]2Cc2ccc(O)cc2)cc1 (stereo partly specified)	-15	.	-2	79*	0	4	i
C/C(=N\NC(=O)Nc1ccccc1)c1ccccc1	-3	2	-6	100*	.	2	i
CC(C)/C(=N\NC(=O)Nc1ccccc1)c1ccccc1	-8	.	-19	.	.	.	.
Cc1ccccc1S(=O)(=O)N1C[C@H](O)COC[C@H]2O[C@H](CC(=O)NCCc3ccccc3)CC[C@@H]21	.	8	-2	42	0	14	.
O=C(Nc1cccc(C(=O)Nc2cccc(Br)c2)c1)c1ccccc1	-10	1	-3	94*	2	-3	i
NC1=NC[C@H](Cc2ccc(O)cc2)N1CCC12CC3CC(CC(C3)C1)C2	-4	-1	6	53*	0	23	i
Clc1nc(-c2ccccc2)c2ccccc2n1	-16	0	3	-16	0	-4	.
CCc1nc(N=C(N)N)nc2ccccc12	.	-6	.	63*	.	3	i
CCc1nc2ccccc2c(C(=O)O)c1C	-8	.	-1	.	.	.	.
NC(N)=Nc1nc(-c2ccccc2)c2ccccc2n1	-16	-1	51*	64*	.	14	i
N#C[C@@H]1[C@H](c2ccc(C3=CCCCC3)cc2)[C@H](CO)N1C(=O)c1ccccn1	0	2	14	1	0	2	.
Cc1cc(C(C)(C)CC(C)(C)C)ccc1OCCOCC[N+](C)(C)Cc1ccccc1	-7	0	33	91*	0	22	?
COc1cc2nc(N(CCCN(C)C)C(=O)c3ccc(S(=O)(=O)N4CCc5ccccc5C4)cc3)sc2cc1OC	11	-1	14	49	0	2	.
CCc1ccc2nc(N(CCCN(C)C)C(=O)c3ccc(S(=O)(=O)N4CCCc5ccccc54)cc3)sc2c1	7	-6	10	71*	0	4	i
COc1cccc2sc(N(CCCN(C)C)C(=O)c3ccc(S(=O)(=O)N4CCc5ccccc5C4)cc3)nc12	14	1	17	70*	0	29*	i
CCOc1ccc2nc(N(CCCN(C)C)C(=O)c3ccc(S(=O)(=O)N4CCc5ccccc5C4)cc3)sc2c1	2	1	-2	59*	0	-2	i
CCCC(=O)Nc1ccc2c(c1)C(=O)N(C)C[C@@H](OC)[C@@H](C)CN(Cc1ccccc1)[C@@H](C)CO2	.	.	-1	.	0	.	.
CN1CCN(c2ccc(NC(=O)c3cc(S(N)(=O)=O)ccc3N3CCOCC3)cc2)CC1	-5	4	19	72*	.	10	i
CN(C)CCCn1c2c3ccccc3ccc2c2oc(=O)c3ccccc3c21	.	.	.	64*	0	-16	i
O=C(Nc1ccc(N2CCCC2)cc1)c1cccc(-c2cc3ccccc3oc2=O)c1	-9	1	2	58*	-3	14	i
CC(C)CC#Cc1ccc([C@@H]2[C@@H](CO)N3C(=O)CN(C(=O)Cc4ccccc4)C[C@@H]23)cc1	.	0	.	0	-1	2	.
Clc1ccc(OCCN2CCOCC2)cc1Cl	-14	.	0	.	.	.	.
NC(=S)NN=C1c2cc(OCCN3CCOCC3)ccc2-c2ccc(OCCN3CCOCC3)cc21	.	1	.	87*	0	12	i
CCC(C)(C)c1ccc(OCCCC[n+]2cccc(C)c2C)c(C(C)(C)CC)c1	-1	-1	36	66*	.	22	i
CCCC(=O)N1CCC2(CC1)CN(C(=O)C1CC1)[C@H](CO)c1[nH]c3cc(OC)ccc3c12	.	2	.	0	0	-1	.
COc1cc(CNC(C)c2ccccc2)cc(Br)c1OCc1ccc(F)cc1 (stereo unspecified)	6	0	-5	54*	0	0	i
CN(C)CCCN(C(=O)c1ccc(S(=O)(=O)N(C)Cc2ccccc2)cc1)c1nc2cc3c(cc2s1)OCO3	14	-3	3	-5	.	16	.
Cc1ccc2nc(N(CCN(C)C)C(=O)c3ccc4ccccc4c3)sc2c1	-20	.	3	.	.	.	.
CN(C)CCN(C(=O)c1ccc2ccccc2c1)c1nc2cc3c(cc2s1)OCCO3	2	-2	34	69*	.	50*	i
COc1cc2nc(N(CCCN(C)C)C(=O)c3ccc(C(=O)c4ccccc4)cc3)sc2cc1OC	-10	-7	30	72*	.	28*	i
CCN(c1ccccc1)S(=O)(=O)c1ccc(C(=O)N(CCCN(C)C)c2nc3cc4c(cc3s2)OCO4)cc1	8	2	20	66*	.	?	i
C[C@@H]1CN([C@H](C)CO)C(=O)Cc2cc(NC(=O)Nc3ccc(C(F)(F)F)cc3)ccc2O[C@@H]1CN(C)S(C)(=O)=O	.	3	-4	-1	.	1	.
COc1nc(Nc2nc3ccccc3c(=O)[nH]2)nc2ccc(C)cc12	-6	2	-2	-1	.	-5	.
COc1nc(N=C(N)N)nc2ccc(C)cc12	.	-11	.	79*	.	3	i
CC(=O)O[C@H]1C[C@@H]2CC[C@@H]3[C@H](CC[C@@]4(C)[C@H]3C[C@H]([N+]3(C)CCCCC3)[C@@H]4OC(C)=O)[C@@]2(C)C[C@@H]1[N+]1(C)CCCCC1	-3	1	-12	48	2	7	.
CC(=O)OC1C([N+]2(C)CCCCC2)C[C@H]2C3CC[C@H]4C[C@H](OC(C)=O)C([N+]5(C)CCCCC5)CC4(C)[C@H]3CCC12C (stereo partly specified)	-20	3	-13	50*	3	-3	i
C[C@@H](NC(=O)[C@H]1[C@H](CO)[C@H]2Cn3c(cccc3=O)[C@@H]1N2C(=O)C1CC1)c1ccccc1	-3	5	1	11	0	0	.
NCC[C@H](O)C(=O)N[C@@H]1C[C@H](N)[C@@H](O[C@H]2O[C@H](CN)[C@@H](O)[C@H](O)[C@H]2O)[C@H](O)[C@H]1O[C@H]1O[C@H](CO)[C@@H](O)[C@H](N)[C@H]1O	-15	-5	100*	57*	-2	62*	i

5 entries from above, sorted by formula weight, lowest first:
SMILES	UUG fidelity	SIRT5 inh	RAD54 inh	RAD52 anneal inh	E-sel inducer	AF4-AF9 inh	RAD52 DNA ctr
Clc1nc(-c2ccccc2)c2ccccc2n1	-16	0	3	-16	0	-4	.
Clc1ccc(OCCN2CCOCC2)cc1Cl	-14	.	0	.	.	.	.
CCC(C)(C)c1ccc(OCCCC[n+]2cccc(C)c2C)c(C(C)(C)CC)c1	-1	-1	36	66*	.	22	i
C[C@@H](NC(=O)[C@H]1[C@H](CO)[C@H]2Cn3c(cccc3=O)[C@@H]1N2C(=O)C1CC1)c1ccccc1	-3	5	1	11	0	0	.
CCc1ccc2nc(N(CCCN(C)C)C(=O)c3ccc(S(=O)(=O)N4CCCc5ccccc54)cc3)sc2c1	7	-6	10	71*	0	4	i
